The assay concerns the target nLuc-PTHR1 (human parathyroid hormone receptor-1 with NanoLuc luciferase fused to the N-terminus) (human) (UniProt Q03431). Kind of assay: FRET or BRET.

By UniProt entry, the sequences of proteins in these tests, tags left out. Residues count along the entry.
UniProt Q03431, 27-593: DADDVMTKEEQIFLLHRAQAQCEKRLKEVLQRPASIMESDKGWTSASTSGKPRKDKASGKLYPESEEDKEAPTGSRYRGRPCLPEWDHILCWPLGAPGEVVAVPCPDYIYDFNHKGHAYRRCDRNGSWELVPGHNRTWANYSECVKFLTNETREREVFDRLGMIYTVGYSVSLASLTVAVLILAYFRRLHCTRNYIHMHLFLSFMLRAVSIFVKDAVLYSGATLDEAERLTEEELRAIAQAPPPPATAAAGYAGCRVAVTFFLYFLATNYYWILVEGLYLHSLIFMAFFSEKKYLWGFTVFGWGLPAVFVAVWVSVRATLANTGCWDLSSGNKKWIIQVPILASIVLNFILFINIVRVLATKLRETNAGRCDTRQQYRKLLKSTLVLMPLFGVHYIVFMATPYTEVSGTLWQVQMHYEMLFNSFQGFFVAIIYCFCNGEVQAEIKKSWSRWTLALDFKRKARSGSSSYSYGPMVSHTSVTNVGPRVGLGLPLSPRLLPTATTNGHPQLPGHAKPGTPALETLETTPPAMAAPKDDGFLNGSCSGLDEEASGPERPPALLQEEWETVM

In the case of PTHrP(1-34) (peptide), the Kd came to 73 nM, the koff was 0.024 s⁻¹ and the kon turned out to be 240000 M⁻¹ s⁻¹.

These data come from PMC9747329 (ACS chemical biology, 2022).
